This assay concerns CAMP. As to the kind of experiment: Induction of CAMP mRNA expression in U937 cells (QRT-PCR, RT-PCR, Northern blot). Conditions: U937, initial screen, 24 h, QRT-PCR and Northern blot. The class given is cell-based, human.

Turning to IL-2: cytokine, the “induction of CAMP expression” value was “only 1,25(OH)2D3 induced CAMP expression significantly”.
